Where two headings read alike, the source gives them in different places.
B1: PI64052 (afucosylated PI-4026-5-M100L) (antibody, human IgG1, kappa)
heavy: not shown
light: DIQLTQSPSSLSASVGDRVTITCSASSSVSYMHWYQQKPGKAPKLLLYTTSNLASGVPSRFSGSGSGTDYTLTISSLQPEDFATYYCHQWSGYPTFGQGTKLEIKRTVAAPSVFIFPPSDEQLKSGTASVVCLLNNFYPREAKVQWKVDNALQSGNSQESVTEQDSKDSTYSLSSTLTLSKADYEKHKVYACEVTHQGLSSPVTKSFNRGEC
modifications: afucosylated Fc glycan (made in FUT8-deficient expi293 cells)
B2: PI64062 (afucosylated PI-4026-5-M100Q) (antibody, human IgG1, kappa)
heavy: not shown
light: B1 light
modifications: afucosylated Fc glycan (made in FUT8-deficient expi293 cells)
B3: PI-4026-5-M100Q (fucosylated) (antibody, human IgG1, kappa)
heavy: not shown
light: B1 light
notes: hIgG1, fucosylated; also called fucosylated parent of PI64062
B4: PI-4026-5 (antibody, human IgG1, kappa)
heavy: not shown
light: B1 light
notes: fucosylated form made in expi293 cells

By UniProt entry, the sequences of proteins in these tests, tags left out. Residues count along the entry.
UniProt Q9NP99, 21-234 limits assumed: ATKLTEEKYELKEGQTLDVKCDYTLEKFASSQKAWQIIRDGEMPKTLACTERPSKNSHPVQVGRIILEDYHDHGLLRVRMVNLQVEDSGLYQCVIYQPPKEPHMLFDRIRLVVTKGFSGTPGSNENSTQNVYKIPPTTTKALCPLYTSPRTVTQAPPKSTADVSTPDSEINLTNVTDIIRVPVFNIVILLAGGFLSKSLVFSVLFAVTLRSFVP
UniProt Q9NP99, 21-205 limits assumed, stated change not applied: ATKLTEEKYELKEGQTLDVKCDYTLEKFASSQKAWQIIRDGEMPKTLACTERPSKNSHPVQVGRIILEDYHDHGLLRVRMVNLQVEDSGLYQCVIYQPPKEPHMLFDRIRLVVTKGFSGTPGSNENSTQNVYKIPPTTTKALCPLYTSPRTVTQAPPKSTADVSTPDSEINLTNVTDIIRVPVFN

Experiments:
[1] = biological target: T1, human TREM1 on cells (human, UniProt Q9NP99 21-234); assay: flow cytometry on human peripheral blood monocytes, experiment 2
T1 construct: Used for over-expressing cell lines and for primary human monocytes and neutrophils; also called hTREM1; human TREM1 over-expressing HEK293 or expi293 cells

[2] = biological target: T1, human TREM1 on cells; assay: flow cytometry on human peripheral blood monocytes, experiment 3
[3] = biological target: T2, Human chimeric TREM1-mIgG Fc (human, UniProt Q9NP99 21-205, limits assumed); assay: SPR (Biacore T200), avid format: human TREM1-mIgG Fc captured, antibody as analyte
T2 construct: also called human TREM1-mIgG Fc; not shown: mouse IgG Fc

[4] = biological target: T3, His tagged-human TREM1 (human, UniProt Q9NP99 21-205, limits assumed); assay: SPR (Biacore T200), monomeric format: antibody captured, His-tagged human TREM1 as analyte
T3 construct: also called monomeric human TREM1; not shown: His tag

[5] = biological target: T3, His tagged-human TREM1; assay: as above; remark: listed apart in the source
[6] = biological target: T2, Human chimeric TREM1-mIgG Fc; assay: SPR (Biacore T200), avid format: human TREM1-mIgG Fc captured, antibody as analyte; remark: listed apart in the source
[7] = biological target: T1, human TREM1 on cells; assay: flow cytometry on HEK293 cells over-expressing human TREM1, experiment 2
Experimental: (§1) An Alexa 647-conjugated anti-human Fcγ secondary antibody (Jackson Immunoresearch) diluted at 1:500 was used to detect bound primary antibody. The secondary antibody was incubated with the cells for 30 mins on ice. […] Fluorescence signal from bound antibody was assessed by flow cytometry (ThermoFisher Attune NxT). EC50 values were calculated in Prism Software (Graphpad).

[8] = biological target: T1, human TREM1 on cells; assay: cell-based or functional assay
[9] = biological target: T1, human TREM1 on cells; assay: flow cytometry on HEK293 cells over-expressing human TREM1, experiment 3
Experimental: as §1

[10] = biological target: T1, human TREM1 on cells; assay: flow cytometry on human peripheral blood monocytes
[11] = biological target: T1, human TREM1 on cells; assay: flow cytometry on HEK293 cells over-expressing human TREM1, experiment 1
Experimental: as §1

[12] = biological target: T1, human TREM1 on cells; assay: flow cytometry on human peripheral blood monocytes, experiment 1
[13] = biological target: T1, human TREM1 on cells; assay: receptor occupancy by flow cytometry on human monocytes, 24 hr; loss of signal of conjugated anti-TREM1 clone TREM26 (competitor)
[14] = biological target: T1, human TREM1 on cells; assay: receptor occupancy by flow cytometry on human neutrophils, 24 hr; loss of signal of conjugated anti-TREM1 clone TREM26 (competitor)
[15] = biological target: T1, human TREM1 on cells; assay: flow cytometry on human peripheral blood monocytes; remark: listed apart in the source
[16] = biological target: T3, His tagged-human TREM1; assay: SPR (Biacore T200), monomeric format: antibody captured, His-tagged human TREM1 as analyte; remark: listed apart in the source
[17] = biological target: T2, Human chimeric TREM1-mIgG Fc; assay: SPR (Biacore T200), avid format: human TREM1-mIgG Fc captured, antibody as analyte; remark: listed apart in the source
[18] = biological target: T3, His tagged-human TREM1; assay: SPR (Biacore T200), monomeric format: antibody captured, His-tagged human TREM1 as analyte; remark: listed apart in the source
Experimental: All data were collected at 25° C. 10 mM HEPES pH 7.4, 150 mM NaCl, 3 mM EDTA, 0.05% (v/V) surfactant P20 was used as mobile buffer and for all dilution of mAbs. […] BIAevaluation software was used to perform the kinetic evaluation. Kinetic evaluation was through generation of sensorgrams which were fitted with a 1:1 Langmuir binding model.

[19] = biological target: T1, human TREM1 on cells; assay: flow cytometry on HEK293 cells over-expressing human TREM1, Alexa 647 anti-human Fcγ secondary antibody
Experimental: as §1

[20] = biological target: T2, Human chimeric TREM1-mIgG Fc; assay: SPR (Biacore T200), avid format: human TREM1-mIgG Fc captured, antibody as analyte; remark: listed apart in the source
Experimental: All data were collected at 25° C. 10 mM HEPES pH 7.4, 150 mM NaCl, 3 mM EDTA, 0.05% (v/V) surfactant P20 was used as mobile buffer and for all dilution of mAbs. Anti-mouse Fc was immobilized on a CM4 biosensor chip (GE Healthcare) using amine coupling chemistry. […] After each cycle, the surface was regenerated by injecting a glycine HCl buffer (10 mM, pH 2.0). BIAevaluation software was used to perform the kinetic evaluation. Kinetic evaluation was through generation of sensorgrams which were fitted with a 1:1 Langmuir binding model.

[21] = biological target: T1, human TREM1 on cells; assay: flow cytometry on human neutrophils

| Binder | EC50 [1] [nM] | EC50 [2] [nM] | Kd [3] [nM] | Kd [4] [nM] | Kd [5] [nM] | Kd [6] [nM] | EC50 [7] [nM] | ADCP by primary human macrophages, EC50 (nM), donor 1 [8] [nM] | ADCP by primary human macrophages, EC50 (nM), donor 2 [8] [nM] | EC50 [9] [nM] | EC50 [10] [nM] | EC50 [11] [nM] | EC50 [12] [nM] | IC50 [13] [nM] | IC50 [14] [nM] | EC50 [15] [nM] | Kd [16] [nM] | Kd [17] [nM] | further results |
| --- | --- | --- | --- | --- | --- | --- | --- | --- | --- | --- | --- | --- | --- | --- | --- | --- | --- | --- | --- |
| B1 | 1.4 | 0.73 | 0.15 | 4.34 | 4.34 | 0.15 | 3.97 | 6.86 | 0.86 | 5.34 | 0.75 | 3.26 | 0.75 |  |  |  |  |  |  |
| B2 | 1.27 | 0.57 | 0.39 | 6.32 | 6.32 | 0.39 | 3.88 | 8.69 | 0.96 | 4.88 | 1.32 | 2.32 | 1.32 | 0.06 | 0.09 |  |  |  |  |
| B3 |  |  |  |  |  |  |  |  |  |  |  |  |  | 0.05 | 0.13 | 0.65 | 5.61 | 0.37 |  |
| B4 |  |  |  |  |  |  |  |  |  |  |  |  |  |  |  | 0.3 | 4.81 | 0.68 | Kd [18]: 2.01 nM; EC50 (read off the curve) [19]: ~0.2 µg/mL; Kd [20]: < 0.1 nM; EC50 [21]: 0.21 nM |

Reference: US20200255529A1 (PIONYR IMMUNOTHERAPEUTICS, published 2020)
